Screens as filed in PubChem.
Rango dissoc inh = qHTS Assay for Inhibitors of RanGTP induced Rango (Ran-regulated importin-beta cargo) - Importin beta complex dissociation. Biochemical FRET Rango-importin beta, RanGTP-induced dissociation. 340,000 compounds, 0.071% hits. AID 540253, 2011. Potency, µM (doses to about 46.1 µM), for inactives: at the top dose activity change, negative = inhibition. Snurportin-1 (Homo sapiens) + GTP-binding nuclear protein Ran (Homo sapiens) + Importin …; further: potency means the concentration at half of the fitted maximal effect; % of control where 0% means no effect; nearly all actives have a fitted effect of over 45% in size
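Rango FRET biosensor (snurportin-1 IBB flanked by N-terminal EYFP and C-terminal CFP10) at 0.1 uM, with 0.25 uM importin beta in PBS, 1mM DTT, 0.02% Tween-20, 0.1% BSA. 0.6 uM Ran, 2mM GTP and 0.2 uM RCC1 were then added for 45 min at room temperature. Inhibition read as loss of FRET rise.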
MBNL1 CUG block = qHTS Assay for Inhibitors of MBNL1-poly(CUG) RNA binding | Muscleblind-like protein 1 (Homo sapiens), Q9NR56 | TR-FRET MBNL1-His/biotin-(CUG)12 binding, 665/545 ratio | Potency, µM (highest dose often 57.5 µM), for the others: top-dose activity change, negative = inhibition, most hits filed as inhibitors | 280,000 compounds, 0.036% hits | AID 2675, 2010; active means well fitted inhibition curve with a large enough effect in the signal ratio, with a control signal flat, not every such curve was filed as active; inconclusive means small, poorly fitted or top-dose-only effect, or effect the other way, or a change in a side signal; inactive means no such curve, though single readings can be large or run the other way; the % refers to the signal ratio; further: potency means the concentration at half of the fitted maximal effect; on the % scale 0 is the no-effect control and ±100 the full control effect
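Inhibition of protein-RNA binding appears as loss of TR-FRET between terbium anti-His antibody on MBNL1-His and streptavidin-XL665 on biotin-(CUG)12. Activity is normalized to buffer-only and uninhibited-complex controls.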
ClpP mod = qHTS Assay for Activators of ClpP | Potency, µM (titrated, usually from 57.5 µM), inactives show at the highest dose activity change, negative = active | 340,000 compounds, 1.9% hits | purified B. subtilis ClpP, FRET peptide cleavage, 20 min | AID 651965, 2013; active means well fitted falling curve with a large enough effect; inconclusive means small, poorly fitted or top-dose-only effect; inactive means no such curve, though single readings can be large or run the other way; further: potency means the concentration at half of the fitted maximal effect; the source files actives as falling curves though it sought activators and does not explain the sign; nearly all actives have a fitted effect of over 65% in size
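Buffer: 100 mM Tris/HCl pH8, 100 mM KCl, 0.05% low protease BSA, 2.5% glycerol, 0.01% Tween-20. ClpP 10 microg/mL final; 20 min RT; delta FRET normalized to ADEP and DMSO controls.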
Rango-impB inh = qHTS Assay for Inhibitors of Rango (Ran-regulated importin-beta cargo) - Importin beta complex formation | Importin subunit beta-1 (Homo sapiens), Q14974 | Rango CFP/YFP FRET sensor + importin beta, 45 min | Potency, µM (highest dose often 92.2 µM), inactives show at the top dose inhibition of complex formation | 340,000 compounds, 0.031% hits;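 further: potency means the concentration at half of the fitted maximal effect; 0% = DMSO wells and 100% = buffer wells lacking importin beta; nearly all actives have a fitted effect of over 15% in size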
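Inhibition scored from the CFP 486 nm/YFP 530 nm FRET ratio 45 min after adding 0.125 microM importin beta to 50 nM Rango biosensor preincubated 5 min with compound (room temperature, PBS with DTT, Tween-20, BSA). No-importin wells as positive control.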
CBFb RUNX1 block = qHTS Assay for Compounds Blocking the Interaction Between CBF-beta and RUNX1 for the Treatment of Acute Myeloid Leukemia | Potency, µM (titrated, usually from 59.8 µM), for inactives: at the highest dose activity, negative = inhibition, hits mostly inhibitors | AlphaScreen CBFb-His/RUNX1-biotin binding, biochemical | 230,000 tested, under 10 active; active means well fitted curve in the direction sought with a large enough effect; inconclusive means small, poorly fitted or top-dose-only effect, or effect the other way, or another doubt; inactive means no such curve, though single readings can be large or run the other way; further: % of control where 0% means no effect
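CBF-beta (His) and RUNX1 (biotin), 30 nM each; 20 min preassociation; + compound, 15 min; + beads 50 ng each (Ni, streptavidin), 90 min; RT; AlphaScreen read.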
* marks the source's active call; other numbers are inactive results; ? = inconclusive; / = no result; [ ] = another dose, or the depositor's remark. Many of the other results were omitted from the sample, so hits are more common in it than they were. Unless noted, the call rests on the fitted dose curve.

Sequences of proteins named here, by UniProt entry; tags and fusion partners are left off.
Importin subunit beta-1 (Homo sapiens), Q14974, UniProt Q14974, whole entry, looked up: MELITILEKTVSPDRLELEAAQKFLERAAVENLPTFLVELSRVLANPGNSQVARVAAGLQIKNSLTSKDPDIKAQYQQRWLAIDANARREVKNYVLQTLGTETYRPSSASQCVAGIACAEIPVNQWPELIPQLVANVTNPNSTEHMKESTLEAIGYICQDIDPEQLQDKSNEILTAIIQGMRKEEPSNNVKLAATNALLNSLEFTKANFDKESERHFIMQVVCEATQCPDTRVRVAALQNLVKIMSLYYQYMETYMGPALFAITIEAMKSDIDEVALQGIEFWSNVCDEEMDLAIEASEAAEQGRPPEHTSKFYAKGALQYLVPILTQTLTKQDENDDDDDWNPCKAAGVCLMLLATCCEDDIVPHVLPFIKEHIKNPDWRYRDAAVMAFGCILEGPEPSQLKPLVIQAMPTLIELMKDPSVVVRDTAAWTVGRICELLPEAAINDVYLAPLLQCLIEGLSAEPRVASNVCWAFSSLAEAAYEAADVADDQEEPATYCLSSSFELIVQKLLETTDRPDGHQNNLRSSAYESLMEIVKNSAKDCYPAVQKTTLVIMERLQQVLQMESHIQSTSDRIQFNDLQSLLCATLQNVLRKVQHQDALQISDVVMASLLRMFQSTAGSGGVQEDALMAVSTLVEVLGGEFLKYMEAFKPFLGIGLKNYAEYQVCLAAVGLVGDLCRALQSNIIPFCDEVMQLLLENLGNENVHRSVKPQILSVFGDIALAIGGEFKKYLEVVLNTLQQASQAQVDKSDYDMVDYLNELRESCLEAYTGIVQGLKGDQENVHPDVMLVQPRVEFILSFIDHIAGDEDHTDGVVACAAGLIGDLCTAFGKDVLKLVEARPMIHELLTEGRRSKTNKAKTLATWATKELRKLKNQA

Start of the listing, in advance:
(1) O=C(OCC(=O)N1CCN(c2ccccc2)CC1)c1cc(F)c(F)cc1Cl
(2) O=C(COc1ccc2oc(-c3ccccc3)cc(=O)c2c1)NCc1ccco1
(3) Cc1cc(=O)oc2cc(OCC(=O)NCc3ccncc3)ccc12

| assay / compound | 1 | 2 | 3 |
| --- | --- | --- | --- |
| Rango dissoc inh | / | 0.3% | -11.2% |
| MBNL1 CUG block | / | 10.1% | 0.0% |
| ClpP mod | 0.9% | 35.5µM* | 22.4µM* |
| CBFb RUNX1 block | / | -8.6% | 4.9% |
| Rango-impB inh | / | 0.6% | 0.0% |

This part in full, repeating the preview:
(1) O=C(OCC(=O)N1CCN(c2ccccc2)CC1)c1cc(F)c(F)cc1Cl
(2) O=C(COc1ccc2oc(-c3ccccc3)cc(=O)c2c1)NCc1ccco1
(3) Cc1cc(=O)oc2cc(OCC(=O)NCc3ccncc3)ccc12
(4) Cc1cc(=O)oc2cc(OCC(=O)NCc3ccco3)ccc12
(5) Cc1cc(=O)oc2cc(OCC(=O)NCc3cccnc3)ccc12
(6) CCc1ccc(CNC(=O)c2c(C)oc3ncn(CC(C)C)c(=O)c23)cc1
(7) CC(=O)[C@@H]1[C@H]2[C@H](C(=O)[C@H]3OC[C@@H]2O3)[C@H]2C=Cc3ccccc3N21
(8) CCc1ccc(-n2nc(C)c3c(C)cc(=O)n(CC(=O)N(CC)Cc4ccccc4)c32)cc1

| assay / compound | 1 | 2 | 3 | 4 | 5 | 6 | 7 | 8 |
| --- | --- | --- | --- | --- | --- | --- | --- | --- |
| Rango dissoc inh | / | 0.3% | -11.2% | -0.9% | 0.2% | / | / | / |
| MBNL1 CUG block | / | 10.1% | 0.0% | -9.9% | 8.9% | / | / | / |
| ClpP mod | 0.9% | 35.5µM* | 22.4µM* | 28.2µM* | 25.1µM* | -4.7% | / | -8.0% |
| CBFb RUNX1 block | / | -8.6% | 4.9% | -1.8% | 10.9% | / | -16.5%[21.7 µM] | / |
| Rango-impB inh | / | 0.6% | 0.0% | 4.1% | 3.4% | / | / | / |

(9) Cc1cccc(OCC(=O)Nc2ccc3c(C)cc(=O)oc3c2)c1
(10) Cc1cc(=O)oc2cc(NC(=O)COc3cccc(C(F)(F)F)c3)ccc12
(11) COC(=O)c1cc2ccsc2n1CC(=O)N1CCCc2ccccc21
(12) COC(=O)c1cc2oc3ccccc3c2n1CC(=O)N1CCCc2ccccc21
(13) Cc1cc[n+](-c2nc3ccccc3nc2[N-]S(=O)(=O)c2cccs2)cc1C
(14) Cc1cc[n+](-c2nc3ccccc3nc2[N-]S(=O)(=O)c2ccccc2)cc1
(15) CCn1cc(C(=O)N2CCN(c3cccc(Cl)c3)CC2)c(=O)c2cc(S(=O)(=O)N3CCC(C)CC3)ccc21
(16) CCS(=O)(=O)Nc1ccccc1C(N)=O

| assay / compound | 9 | 10 | 11 | 12 | 13 | 14 | 15 | 16 |
| --- | --- | --- | --- | --- | --- | --- | --- | --- |
| Rango dissoc inh | 11.9% | 3.6% | -5.1% | -7.8% | 7.5% | 13.9% | / | -6.5% |
| MBNL1 CUG block | / | / | -5.6% | 2.5% | ? | ? | / | -2.7% |
| ClpP mod | 12.6µM* | 3.4% | -1.3% | 8.91µM* | 8.91µM* | -2.0% | 0.6% | / |
| CBFb RUNX1 block | 8.4% | / | 2.8% | 1.3% | -5.0% | -4.2% | / | 2.4% |
| Rango-impB inh | 0.6% | 1.5% | 0.0% | -1.5% | ? | 1.3% | / | -0.6% |

(17) NC(=O)c1ccccc1NS(=O)(=O)c1ccccc1
(18) CN(C)S(=O)(=O)Nc1ccccc1C(N)=O
(19) NC(=O)c1ccccc1NS(=O)(=O)Cc1ccc(Cl)cc1
(20) CCCN1CCC(=O)N(CCSc2ccc(Br)cc2)CC1
(21) Cc1ccc(N(C(=O)COc2ccccc2C)S(=O)(=O)c2ccc(Cl)cc2)cc1
(22) O=C1C(Nc2ccccc2)=C/C(=N/S(=O)(=O)c2cccs2)c2ccccc21
(23) Cc1ccc(NC2=C/C(=N/S(=O)(=O)c3cccs3)c3ccccc3C2=O)cc1
(24) CC1=C(C(=O)Nc2ccccc2)C(c2ccccn2)n2nc(SCc3ccccc3)nc2N1 (stereo unspecified)

| assay / compound | 17 | 18 | 19 | 20 | 21 | 22 | 23 | 24 |
| --- | --- | --- | --- | --- | --- | --- | --- | --- |
| Rango dissoc inh | 3.0% | 2.2% | 0.8% | / | / | -10.2% | 9.5% | / |
| MBNL1 CUG block | -4.4% | -5.3% | -4.4% | / | / | ? | -10.0% | / |
| ClpP mod | 28.2µM* | 22.4µM* | 22.4µM* | / | 0.708µM* | 11.2µM* | -18.8% | -2.3% |
| CBFb RUNX1 block | 6.2% | 6.1% | -0.1% | 13.5% | / | / | -27.0% | / |
| Rango-impB inh | 0.3% | -2.7% | -0.2% | / | / | 1.6% | -0.9% | / |

(25) Oc1ccc2ccccc2c1C=Nc1ccc(N2CCOCC2)cc1
(26) O=[N+]([O-])c1cccc(SSc2cccc([N+](=O)[O-])c2)c1
(27) N#Cc1nc(-c2ccco2)oc1N1CCC(Cc2ccccc2)CC1
(28) N#Cc1nc(-c2cccc3ccccc23)oc1NCCN1CCOCC1
(29) N#Cc1nc(-c2ccco2)oc1NCCN1CCOCC1

| assay / compound | 25 | 26 | 27 | 28 | 29 |
| --- | --- | --- | --- | --- | --- |
| Rango dissoc inh | ? | -10.5% | 1.1% | 0.2% | -0.1% |
| MBNL1 CUG block | ? | / | -7.7% | ? | 4.7% |
| ClpP mod | 2.4% | / | 25.1µM* | 6.31µM* | 12.6µM* |
| CBFb RUNX1 block | -3.6% | / | ? | 15.7% | -3.5% |
| Rango-impB inh | 36.6µM* | 0.1% | -5.5% | -4.3% | -0.8% |
